Laboratory results published in patent publication US20230061736A1, “GPR119 AGONISTS” (Kallyope, Inc., priority 2019, published 2023).

The chains behind the UniProt entries cited, without tags or fusion partners.
UniProt Q8TDV5, whole entry: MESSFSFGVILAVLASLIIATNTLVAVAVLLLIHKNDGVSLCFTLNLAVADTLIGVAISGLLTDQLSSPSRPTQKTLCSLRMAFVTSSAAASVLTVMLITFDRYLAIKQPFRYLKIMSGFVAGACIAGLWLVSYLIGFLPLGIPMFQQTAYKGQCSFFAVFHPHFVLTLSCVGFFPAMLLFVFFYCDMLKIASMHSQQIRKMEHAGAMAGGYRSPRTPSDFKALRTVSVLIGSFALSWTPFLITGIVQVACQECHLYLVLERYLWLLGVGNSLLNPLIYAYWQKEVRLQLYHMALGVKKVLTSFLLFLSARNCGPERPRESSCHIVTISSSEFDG

Molecular target: human GPR119 (hGPR119) (Homo sapiens, UniProt Q8TDV5)
Assay: cAMP accumulation assay (cAMP Gs dynamic HTRF kit)
Settings: CHO-K1 cells stably expressing hGPR119, 4-parameter fit
Description: CHO-K1 cells stably expressing human GPR119 (hGPR119) were prepared by transfection of a GPR119-carrying plasmid using Lipofectamine 2000 (following manufacturer instructions). A stable cell line was established using the limiting dilution method with geneticine selection. Assay-ready frozen (ARF) cells were prepared and used throughout the study.
The assay was performed in a 384-well plate format using the cAMP Gs dynamic assay kit from Cisbio. ARF cells expressing hGPR119 were thawed, washed and then resuspended in cAMP stimulation buffer at a cell density of 1.1×10^6 cells/mL. Cells were plated at a density of ˜10,000 cells/well (9 μL/well). Dose response curves for the tested compounds were prepared in a cAMP stimulation buffer, containing 0.1% Tween 80 at 4 fold the final concentration. The compounds were then transferred to the cell plates using BRAVO (3 μL/well) and the plates were incubated for 60 minutes at 37° C./5% CO2. Detection buffer (10 μL, prepared as described in the cAMP Gs dynamic kit) were added to each well, and the plates were incubated at ambient temperature for 1 hr.
RT-FRET was measured using a ClarioSTAR plate reader, calculating the ratio between emissions at 665 nm and 620 nm (HTRF ratio). […] EC50 and Max activity values were determined using a standard 4-parameter fit.

COCc1cnc(N2CCC([C@H]3C[C@H]3CCOc3ccc(CC(=O)N4CC[C@@H](CNC(CO)(CO)CO)C4)c(F)c3)CC2)nc1
Max Activity (% activity normalized to Max/Min controls): +++ (+++ ≥ 130%)
EC50 (cAMP accumulation): < 100 nM
